# Source: patent publication EP4803139A2
# “And” between values parts separate entries of the source, which are not always exact repeats. Equal values may be shown once.
# Tests used:
# [1] = target: human PCSK9 (proprotein convertase subtilisin/kexin type 9), wild type (human) (UniProt Q8NBP7); assay: competition ELISA: 100 ng/mL biotinylated WT PCSK9 with 11F1, binding to captured LDLR (n=3)
# [2] = target: human PCSK9 (proprotein convertase subtilisin/kexin type 9), wild type (human) (UniProt Q8NBP7); assay: cell-based or functional assay
binder,measurement,setting,value
"11F1, anti-PCSK9 antibody (antibody, V domains shown) VH: EVQLVESGGGLVQPGGSLRLSCAASGFTFSNYWMSWVRQAPGKGLEWVASIKQDGSEKYYVDSVKGRFAISRDNAKNSLFLQMNSLRAEDTAVYYCARDLVLMVYDIDYYYYGMDVWGQGTTVTVSS VL: DIVMTQSPLSLPVTPGEPASISCRSSQSLLHSNGYNYLDWYLQKPGQSPQLLIYLGSNRASGVPDRFSGSGSGTHLTLKISRVEAEDVGVYYCMQTLQTPLTFGGGTKVEIK",IC50,[1],4.4 nM to 8.1 nM (2×) and 5.9 nM
same,"EC50, block of WT PCSK9-mediated decrease in LDL uptake (HepG2 cells, BODIPY-LDL, 25 µg/mL WT PCSK9)",[2],124 nM
